Values quoted from earlier work as cited in patent US5672603A, “Apoptosis regulating composition” (Otsuka Pharmaceutical Co., Ltd., priority 1991, dated 1997).

Tested on: apoptosis
Settings: literature; cited from earlier work

Question: Which Repression of apoptosis does the source give for IL-2: IL-2 here?
Answer: repress apoptosis

B1: IL-3: hematopoietic system cytokine (protein, UniProt P08700 20-152, looked up)
Interleukin-3: APMTQTTPLKTSWVNCSNMIDEIITHLKQPPLPLLDFNNLNGEDQDILMENNLRRPNLEAFNRAVKSLQNASAIESILKNLLPCLPLATAAPTRHPIHIKDGDWNEFRRKLTFYLKTLENAQAQQTTLSLAIF
Question: With B1 as the molecule, how does the Repression of apoptosis read?
Answer: repress apoptosis
